Laboratory results: ChEMBL document CHEMBL5442219

The chains behind the UniProt entries cited, without tags or fusion partners. Where a name states a change or a piece, a line headed by the entry shows the natural chain unless it says otherwise.
UniProt P35348: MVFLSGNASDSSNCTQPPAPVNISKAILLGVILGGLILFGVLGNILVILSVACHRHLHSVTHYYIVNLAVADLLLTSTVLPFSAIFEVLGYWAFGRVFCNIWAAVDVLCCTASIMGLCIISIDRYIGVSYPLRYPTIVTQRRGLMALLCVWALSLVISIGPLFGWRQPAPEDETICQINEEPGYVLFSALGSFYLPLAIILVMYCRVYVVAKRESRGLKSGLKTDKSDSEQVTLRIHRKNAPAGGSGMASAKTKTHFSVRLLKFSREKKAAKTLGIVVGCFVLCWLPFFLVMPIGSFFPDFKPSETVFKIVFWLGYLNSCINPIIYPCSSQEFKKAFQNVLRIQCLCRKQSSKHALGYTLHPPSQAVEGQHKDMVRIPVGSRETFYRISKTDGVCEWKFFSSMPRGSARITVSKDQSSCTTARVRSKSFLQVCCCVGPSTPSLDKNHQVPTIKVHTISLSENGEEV
UniProt P08588, whole entry, looked up: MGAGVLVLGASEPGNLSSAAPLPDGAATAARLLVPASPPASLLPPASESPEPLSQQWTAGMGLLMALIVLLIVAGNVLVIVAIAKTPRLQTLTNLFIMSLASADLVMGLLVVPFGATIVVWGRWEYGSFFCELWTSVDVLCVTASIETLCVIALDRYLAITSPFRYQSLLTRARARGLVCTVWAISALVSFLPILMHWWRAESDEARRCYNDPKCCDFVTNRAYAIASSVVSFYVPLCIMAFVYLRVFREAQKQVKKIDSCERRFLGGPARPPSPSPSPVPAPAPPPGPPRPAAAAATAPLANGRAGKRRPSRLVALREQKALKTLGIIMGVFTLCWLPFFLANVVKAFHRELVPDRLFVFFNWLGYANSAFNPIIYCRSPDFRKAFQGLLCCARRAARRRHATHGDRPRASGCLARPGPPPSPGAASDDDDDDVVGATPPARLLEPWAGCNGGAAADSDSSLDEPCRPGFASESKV
UniProt P20309, whole entry, looked up: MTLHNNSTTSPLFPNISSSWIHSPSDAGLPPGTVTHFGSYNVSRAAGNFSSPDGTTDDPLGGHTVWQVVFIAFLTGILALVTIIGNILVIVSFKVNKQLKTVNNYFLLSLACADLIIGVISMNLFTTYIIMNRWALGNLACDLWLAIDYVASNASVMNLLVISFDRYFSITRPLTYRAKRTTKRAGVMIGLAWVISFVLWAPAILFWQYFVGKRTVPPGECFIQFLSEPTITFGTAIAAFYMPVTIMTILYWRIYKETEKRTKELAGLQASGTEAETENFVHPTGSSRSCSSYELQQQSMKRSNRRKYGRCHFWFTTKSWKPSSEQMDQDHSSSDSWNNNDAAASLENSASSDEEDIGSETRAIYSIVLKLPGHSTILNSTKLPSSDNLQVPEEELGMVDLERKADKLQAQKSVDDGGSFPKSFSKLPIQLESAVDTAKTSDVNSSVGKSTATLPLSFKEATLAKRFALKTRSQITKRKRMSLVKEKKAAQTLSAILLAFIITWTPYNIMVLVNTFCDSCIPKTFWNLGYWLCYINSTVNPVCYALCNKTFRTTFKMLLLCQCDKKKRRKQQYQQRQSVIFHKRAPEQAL
UniProt P08912, whole entry, looked up: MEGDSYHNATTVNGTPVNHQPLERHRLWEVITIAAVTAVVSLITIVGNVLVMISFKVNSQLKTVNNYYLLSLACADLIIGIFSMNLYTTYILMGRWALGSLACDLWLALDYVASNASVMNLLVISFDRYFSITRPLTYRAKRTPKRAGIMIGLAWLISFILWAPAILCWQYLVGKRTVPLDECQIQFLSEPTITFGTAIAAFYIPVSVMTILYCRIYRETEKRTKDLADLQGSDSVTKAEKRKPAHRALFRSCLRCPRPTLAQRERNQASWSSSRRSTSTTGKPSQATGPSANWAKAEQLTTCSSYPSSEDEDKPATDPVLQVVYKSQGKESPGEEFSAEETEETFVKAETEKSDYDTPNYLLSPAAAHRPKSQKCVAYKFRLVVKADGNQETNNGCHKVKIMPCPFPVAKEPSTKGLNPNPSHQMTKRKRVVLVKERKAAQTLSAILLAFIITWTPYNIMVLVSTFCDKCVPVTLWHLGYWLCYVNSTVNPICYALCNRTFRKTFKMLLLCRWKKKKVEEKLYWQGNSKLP
UniProt P35367, whole entry, looked up: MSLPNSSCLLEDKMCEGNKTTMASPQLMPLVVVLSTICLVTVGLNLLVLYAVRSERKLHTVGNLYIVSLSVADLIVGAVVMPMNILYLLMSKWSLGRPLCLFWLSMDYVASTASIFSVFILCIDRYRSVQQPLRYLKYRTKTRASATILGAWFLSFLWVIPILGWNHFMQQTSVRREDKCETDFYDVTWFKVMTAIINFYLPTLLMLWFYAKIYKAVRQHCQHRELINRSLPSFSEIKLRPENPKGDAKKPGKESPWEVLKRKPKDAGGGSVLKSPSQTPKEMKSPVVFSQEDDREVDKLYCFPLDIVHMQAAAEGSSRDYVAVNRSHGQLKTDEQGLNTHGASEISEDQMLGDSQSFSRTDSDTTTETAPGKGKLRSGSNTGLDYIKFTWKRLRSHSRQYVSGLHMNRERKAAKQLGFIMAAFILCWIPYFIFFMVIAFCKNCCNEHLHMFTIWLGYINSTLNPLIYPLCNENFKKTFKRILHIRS
UniProt Q9H3N8: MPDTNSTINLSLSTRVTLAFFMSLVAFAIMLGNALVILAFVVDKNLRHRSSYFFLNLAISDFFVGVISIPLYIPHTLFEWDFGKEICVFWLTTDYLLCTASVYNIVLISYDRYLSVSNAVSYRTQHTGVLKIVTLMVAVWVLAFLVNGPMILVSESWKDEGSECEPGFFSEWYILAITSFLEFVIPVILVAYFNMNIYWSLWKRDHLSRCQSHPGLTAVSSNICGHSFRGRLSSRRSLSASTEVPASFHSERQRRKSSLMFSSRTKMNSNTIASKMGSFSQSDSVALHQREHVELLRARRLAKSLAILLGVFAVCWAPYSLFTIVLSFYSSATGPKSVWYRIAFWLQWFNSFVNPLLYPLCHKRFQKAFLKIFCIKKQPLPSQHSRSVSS
UniProt P28223, whole entry, looked up: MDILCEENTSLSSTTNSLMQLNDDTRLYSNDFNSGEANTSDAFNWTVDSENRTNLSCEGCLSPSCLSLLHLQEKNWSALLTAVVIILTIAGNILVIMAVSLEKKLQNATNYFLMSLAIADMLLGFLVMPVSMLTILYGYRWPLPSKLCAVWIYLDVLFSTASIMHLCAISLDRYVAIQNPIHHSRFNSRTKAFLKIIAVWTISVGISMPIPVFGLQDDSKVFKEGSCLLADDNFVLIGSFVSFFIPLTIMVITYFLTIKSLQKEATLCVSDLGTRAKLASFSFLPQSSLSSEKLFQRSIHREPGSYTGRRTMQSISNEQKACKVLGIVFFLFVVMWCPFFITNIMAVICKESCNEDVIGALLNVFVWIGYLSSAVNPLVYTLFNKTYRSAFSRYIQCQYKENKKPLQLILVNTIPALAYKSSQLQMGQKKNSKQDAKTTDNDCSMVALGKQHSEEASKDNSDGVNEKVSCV
UniProt P41595, whole entry, looked up: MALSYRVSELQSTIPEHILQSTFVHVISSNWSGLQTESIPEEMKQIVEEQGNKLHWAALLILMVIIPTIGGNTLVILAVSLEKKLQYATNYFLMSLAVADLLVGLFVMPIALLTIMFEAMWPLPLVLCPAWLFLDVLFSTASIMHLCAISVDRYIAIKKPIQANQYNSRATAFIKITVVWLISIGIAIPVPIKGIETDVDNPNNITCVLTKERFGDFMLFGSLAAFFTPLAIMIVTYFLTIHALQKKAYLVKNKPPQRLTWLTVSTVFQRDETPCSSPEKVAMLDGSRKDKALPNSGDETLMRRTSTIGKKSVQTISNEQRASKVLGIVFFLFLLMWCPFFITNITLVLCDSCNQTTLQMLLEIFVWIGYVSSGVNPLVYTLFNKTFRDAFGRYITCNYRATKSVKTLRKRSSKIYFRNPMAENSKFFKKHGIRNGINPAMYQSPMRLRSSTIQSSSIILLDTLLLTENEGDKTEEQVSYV
UniProt P28335: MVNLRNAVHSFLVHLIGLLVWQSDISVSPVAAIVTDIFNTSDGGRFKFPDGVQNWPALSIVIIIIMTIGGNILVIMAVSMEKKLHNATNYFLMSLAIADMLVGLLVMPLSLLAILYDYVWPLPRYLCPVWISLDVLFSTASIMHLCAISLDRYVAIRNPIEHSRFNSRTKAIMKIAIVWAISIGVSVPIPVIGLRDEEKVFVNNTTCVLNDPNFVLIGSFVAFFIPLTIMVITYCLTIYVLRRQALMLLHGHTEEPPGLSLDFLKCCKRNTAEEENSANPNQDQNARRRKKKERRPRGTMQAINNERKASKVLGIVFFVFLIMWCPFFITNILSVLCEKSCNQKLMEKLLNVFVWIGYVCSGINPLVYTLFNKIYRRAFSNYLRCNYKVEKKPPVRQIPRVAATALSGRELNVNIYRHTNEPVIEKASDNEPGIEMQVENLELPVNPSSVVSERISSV
UniProt P46098, whole entry, looked up: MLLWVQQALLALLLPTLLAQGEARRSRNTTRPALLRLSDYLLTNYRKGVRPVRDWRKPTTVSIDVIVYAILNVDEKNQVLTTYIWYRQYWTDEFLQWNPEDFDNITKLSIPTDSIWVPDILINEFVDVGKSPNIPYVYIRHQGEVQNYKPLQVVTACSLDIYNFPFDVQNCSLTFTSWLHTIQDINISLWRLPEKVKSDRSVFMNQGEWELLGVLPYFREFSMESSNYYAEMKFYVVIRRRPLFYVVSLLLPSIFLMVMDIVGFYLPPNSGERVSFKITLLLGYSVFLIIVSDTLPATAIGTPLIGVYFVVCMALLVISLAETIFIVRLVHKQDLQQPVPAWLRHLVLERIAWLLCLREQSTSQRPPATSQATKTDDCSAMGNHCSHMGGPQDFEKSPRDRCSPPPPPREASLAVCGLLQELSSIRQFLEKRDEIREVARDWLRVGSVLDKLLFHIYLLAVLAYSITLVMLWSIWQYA
UniProt P47898, whole entry, looked up: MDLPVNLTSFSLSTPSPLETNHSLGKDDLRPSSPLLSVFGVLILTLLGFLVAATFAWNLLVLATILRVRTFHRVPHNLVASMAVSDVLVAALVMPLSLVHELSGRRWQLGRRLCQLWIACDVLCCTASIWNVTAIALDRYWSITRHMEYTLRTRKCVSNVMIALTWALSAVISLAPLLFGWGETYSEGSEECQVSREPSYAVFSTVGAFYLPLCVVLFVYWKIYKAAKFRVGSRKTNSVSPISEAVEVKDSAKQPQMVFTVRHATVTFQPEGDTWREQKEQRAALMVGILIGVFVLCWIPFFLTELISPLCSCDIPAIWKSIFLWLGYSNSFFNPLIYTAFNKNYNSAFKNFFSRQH
UniProt P41143, whole entry, looked up: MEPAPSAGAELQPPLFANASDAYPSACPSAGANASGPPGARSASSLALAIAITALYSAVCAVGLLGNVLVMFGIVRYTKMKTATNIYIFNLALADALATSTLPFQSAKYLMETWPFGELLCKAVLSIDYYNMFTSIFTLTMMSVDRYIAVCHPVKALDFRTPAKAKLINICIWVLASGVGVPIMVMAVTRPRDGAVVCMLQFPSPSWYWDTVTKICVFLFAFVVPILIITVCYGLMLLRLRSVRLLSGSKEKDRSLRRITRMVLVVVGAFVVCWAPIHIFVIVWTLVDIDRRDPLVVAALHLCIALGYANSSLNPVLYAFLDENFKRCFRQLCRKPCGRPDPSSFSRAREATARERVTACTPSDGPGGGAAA
UniProt Q01959, whole entry, looked up: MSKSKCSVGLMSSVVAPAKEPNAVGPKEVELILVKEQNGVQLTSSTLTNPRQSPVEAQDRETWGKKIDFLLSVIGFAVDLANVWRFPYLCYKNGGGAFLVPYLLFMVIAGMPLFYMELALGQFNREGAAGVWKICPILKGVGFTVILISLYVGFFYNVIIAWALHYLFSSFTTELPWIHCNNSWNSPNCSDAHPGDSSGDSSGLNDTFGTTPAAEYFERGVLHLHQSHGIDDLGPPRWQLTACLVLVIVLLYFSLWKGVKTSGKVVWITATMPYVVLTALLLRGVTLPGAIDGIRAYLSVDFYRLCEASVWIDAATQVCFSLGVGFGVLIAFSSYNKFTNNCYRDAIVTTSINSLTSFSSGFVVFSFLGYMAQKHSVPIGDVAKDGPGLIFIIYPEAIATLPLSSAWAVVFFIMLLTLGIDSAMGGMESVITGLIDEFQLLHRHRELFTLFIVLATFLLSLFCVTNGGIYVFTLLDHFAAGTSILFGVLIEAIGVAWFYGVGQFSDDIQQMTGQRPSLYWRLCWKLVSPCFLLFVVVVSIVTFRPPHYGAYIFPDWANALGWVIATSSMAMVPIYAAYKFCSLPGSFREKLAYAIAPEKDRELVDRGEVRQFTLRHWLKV
UniProt Q5BJF2, whole entry, looked up: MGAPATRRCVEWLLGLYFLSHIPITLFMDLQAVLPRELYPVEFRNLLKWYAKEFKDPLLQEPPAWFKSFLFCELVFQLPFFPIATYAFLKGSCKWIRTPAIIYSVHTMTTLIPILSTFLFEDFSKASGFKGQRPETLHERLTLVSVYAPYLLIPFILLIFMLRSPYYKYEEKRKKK
UniProt P30536, whole entry, looked up: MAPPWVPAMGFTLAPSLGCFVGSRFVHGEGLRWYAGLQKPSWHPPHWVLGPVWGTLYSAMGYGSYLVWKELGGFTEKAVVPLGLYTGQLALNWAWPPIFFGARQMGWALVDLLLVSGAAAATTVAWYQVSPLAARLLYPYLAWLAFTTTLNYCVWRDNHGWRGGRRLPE

Tests used:
[1] = biological target: Alpha-1A adrenergic receptor (Homo sapiens) (UniProt P35348); conditions: Compound concentration 10 µM, Radioligand [3H]-Prazosin
[2] = biological target: Alpha-1B adrenergic receptor (Homo sapiens) (UniProt P35368); conditions: Compound concentration 10 µM, Radioligand [3H]-Prazosin
[3] = biological target: Alpha-2A adrenergic receptor (Homo sapiens) (UniProt P08913); conditions: Compound concentration 10 µM, Radioligand [3H]-Rauwolscine
[4] = biological target: Alpha-2B adrenergic receptor (Homo sapiens) (UniProt P18089); conditions: Compound concentration 10 µM, Radioligand [3H]-Rauwolscine
[5] = biological target: Alpha-2C adrenergic receptor (Homo sapiens) (UniProt P18825); conditions: Compound concentration 10 µM, Radioligand [3H]-Rauwolscine
[6] = biological target: Beta-1 adrenergic receptor (Homo sapiens) (UniProt P08588); conditions: Compound concentration 10 µM, Radioligand [125I]-Pindolol
[7] = biological target: Beta-2 adrenergic receptor (Homo sapiens) (UniProt P07550); conditions: Compound concentration 10 µM, Radioligand [3H]-CGP12177
[8] = biological target: Muscarinic acetylcholine receptor M1 (Homo sapiens) (UniProt P11229); conditions: Compound concentration 10 µM, Radioligand [3H]-QNB
[9] = biological target: Muscarinic acetylcholine receptor M3 (Homo sapiens) (UniProt P20309); conditions: Compound concentration 10 µM, Radioligand [3H]-QNB
[10] = biological target: Muscarinic acetylcholine receptor M5 (Homo sapiens) (UniProt P08912); conditions: Compound concentration 10 µM, Radioligand [3H]-QNB
[11] = biological target: D(1A) dopamine receptor (Homo sapiens) (UniProt P21728); conditions: Compound concentration 10 µM, Radioligand [3H]-SCH23390
[12] = biological target: D(2) dopamine receptor (Homo sapiens) (UniProt P14416); conditions: Compound concentration 10 µM, Radioligand [3H]-N-Methylspiperone
[13] = biological target: D(3) dopamine receptor (Homo sapiens) (UniProt P35462); conditions: Compound concentration 10 µM, Radioligand [3H]-N-Methylspiperone
[14] = biological target: D(4) dopamine receptor (Homo sapiens) (UniProt P21917); conditions: Compound concentration 10 µM, Radioligand [3H]-N-Methylspiperone
[15] = biological target: D(1B) dopamine receptor (Homo sapiens) (UniProt P21918); conditions: Compound concentration 10 µM, Radioligand [3H]-SCH23390
[16] = biological target: Histamine H1 receptor (Homo sapiens) (UniProt P35367); conditions: Compound concentration 10 µM, Radioligand [3H]-Pyrilamine
[17] = biological target: Histamine H4 receptor (Homo sapiens) (UniProt Q9H3N8); conditions: Compound concentration 10 µM, Radioligand [3H]-Histamine
[18] = biological target: 5-hydroxytryptamine receptor 1A (Homo sapiens) (UniProt P08908); conditions: Compound concentration 10 µM, Radioligand [3H]-WAY100635
[19] = biological target: 5-hydroxytryptamine receptor 1B (Homo sapiens) (UniProt P28222); conditions: Compound concentration 10 µM, Radioligand [3H]-GR125743
[20] = biological target: 5-hydroxytryptamine receptor 1D (Homo sapiens) (UniProt P28221); conditions: Compound concentration 10 µM, Radioligand [3H]-GR125743
[21] = biological target: 5-hydroxytryptamine receptor 1E (Homo sapiens) (UniProt P28566); conditions: Compound concentration 10 µM, Radioligand [3H]-5-HT
[22] = biological target: 5-hydroxytryptamine receptor 2A (Homo sapiens) (UniProt P28223); conditions: Compound concentration 10 µM, Radioligand [3H]-Ketanserin
[23] = biological target: 5-hydroxytryptamine receptor 2B (Homo sapiens) (UniProt P41595); conditions: Compound concentration 10 µM, Radioligand [3H]-LSD
[24] = biological target: 5-hydroxytryptamine receptor 2C (Homo sapiens) (UniProt P28335); conditions: Compound concentration 10 µM, Radioligand [3H]-Mesulergine
[25] = biological target: 5-hydroxytryptamine receptor 3A (Homo sapiens) (UniProt P46098); conditions: Compound concentration 10 µM, Radioligand [3H]-GR65630
[26] = biological target: 5-hydroxytryptamine receptor 5A (Homo sapiens) (UniProt P47898); conditions: Compound concentration 10 µM, Radioligand [3H]-LSD
[27] = biological target: 5-hydroxytryptamine receptor 7 (Homo sapiens) (UniProt P34969); conditions: Compound concentration 10 µM, Radioligand [3H]-LSD
[28] = biological target: Delta-type opioid receptor (Homo sapiens) (UniProt P41143); conditions: Compound concentration 10 µM, Radioligand [3H]-DADLE
[29] = biological target: Kappa-type opioid receptor (Homo sapiens) (UniProt P41145); conditions: Compound concentration 10 µM, Radioligand [3H]-U69593
[30] = biological target: Mu-type opioid receptor (Homo sapiens) (UniProt P35372); conditions: Compound concentration 10 µM, Radioligand [3H]-DAMGO
[31] = biological target: Sodium-dependent noradrenaline transporter (Homo sapiens) (UniProt P23975); conditions: Compound concentration 10 µM, Radioligand [3H]-Nisoxetine
[32] = biological target: Sodium-dependent dopamine transporter (Homo sapiens) (UniProt Q01959); conditions: Compound concentration 10 µM, Radioligand [3H]-WIN35428
[33] = biological target: Sodium-dependent serotonin transporter (Homo sapiens) (UniProt P31645); conditions: Compound concentration 10 µM, Radioligand [3H]-Citalopram
[34] = biological target: Sigma intracellular receptor 2 (Homo sapiens) (UniProt Q5BJF2); conditions: Compound concentration 10 µM, Radioligand [3H]-DTG
[35] = biological target: Translocator protein (Homo sapiens) (UniProt P30536); conditions: Compound concentration 10 µM, Radioligand [3H]-PK11195

SMILES: O=C1NCN(c2ccccc2)C12CCN(CC1COc3ccccc3O1)CC2 (stereo not given)
- inhibition [1]: 92.7%
- inhibition [2]: 91%
- inhibition [3]: 103%
- inhibition [4]: 97.7%
- inhibition [5]: 103%
- inhibition [6]: 3.03%
- inhibition [7]: 18.9%
- inhibition [8]: 9.97%
- inhibition [9]: -2.5%
- inhibition [10]: 0.77%
- inhibition [11]: 0.86%
- inhibition [12]: 100%
- inhibition [13]: 80.3%
- inhibition [14]: 65.8%
- inhibition [15]: -3.83%
- inhibition [16]: 36%
- inhibition [17]: 6.79%
- inhibition [18]: 101%
- inhibition [19]: 14.1%
- inhibition [20]: 43.4%
- inhibition [21]: 47.6%
- inhibition [22]: 87%
- inhibition [23]: 89.8%
- inhibition [24]: 11.5%
- inhibition [25]: 3.22%
- inhibition [26]: 57.6%
- inhibition [27]: 98.5%
- inhibition [28]: 21.9%
- inhibition [29]: 84.5%
- inhibition [30]: 98.6%
- inhibition [31]: 52.5%
- inhibition [32]: 49.4%
- inhibition [33]: 12.5%
- inhibition [34]: 90.4%
- inhibition [35]: 10.4%
